{
  "source": "patent US20070021415A1",
  "about": "“Pharmaceutical composition for the prevention or treatment of cerebral oedemas” (priority 2005, published 2007)",
  "key": {"[1]": {"system": "ambulatory activity disrupted by triethyl tin in the rat", "details": "in vivo"}, "[2]": {"system": "neurological index disrupted by triethyl tin in the rat", "details": "in vivo, 50 mg/kg/day"}},
  "note": "Where “and” joins values, the source holds several entries; their conditions need not be identical. Equal values may be shown once. Read-outs that look alike come from different tables or passages of the source.",
  "data": [
    {"smiles": "CC1(c2ccccc2)OC(N)=Nc2ccc(Cl)cc21", "note": "(stereo not shown) [desethyl-etifoxine, 2-amino-6-chloro-4-methyl-4-phenyl-4H-[3,1]benzoxazine]", "values": [
      {"measurement": "TOTAL […] (mean ± s.e.m.)", "setting": "[1]", "result": "2923 ± 210 arbitrary unit and 2053 ± 256 arbitrary unit"},
      {"measurement": "VERTICAL […] (mean ± s.e.m.)", "setting": "[1]", "result": "328 ± 47 arbitrary unit and 295 ± 64 arbitrary unit"},
      {"measurement": "[…] (mean ± s.e.m.)", "setting": "[1]", "result": "2156 ± 182 arbitrary unit and 1382 ± 222 arbitrary unit"},
      {"measurement": "effect of TET on the ambulatory activities (in words)", "setting": "[1]", "result": "suppresses the effect of TET completely"},
      {"measurement": "effect on the ambulatory activities (in words)", "setting": "[1]; 50 mg/kg/day", "result": "does not lead to any significant effect on the ambulatory activities"},
      {"measurement": "TOTAL […] (mean ± s.e.m.)", "setting": "[1]; po, 50 mg/kg/day", "result": "2725 ± 364", "unit": "arbitrary unit"},
      {"measurement": "VERTICAL […] (mean ± s.e.m.)", "setting": "[1]; po, 50 mg/kg/day", "result": "327 ± 57", "unit": "arbitrary unit"},
      {"measurement": "[…] (mean ± s.e.m.)", "setting": "[1]; po, 50 mg/kg/day", "result": "2065 ± 298", "unit": "arbitrary unit"},
      {"measurement": "TOTAL […] (mean ± s.e.m.)", "setting": "[1]; male, Wistar, po, 50 mg/kg/day", "result": "2887 ± 423", "unit": "arbitrary unit"},
      {"measurement": "VERTICAL […] (mean ± s.e.m.)", "setting": "[1]; male, Wistar, po, 50 mg/kg/day", "result": "475 ± 96", "unit": "arbitrary unit"},
      {"measurement": "[…] (mean ± s.e.m.)", "setting": "[1]; male, Wistar, po, 50 mg/kg/day", "result": "2195 ± 355", "unit": "arbitrary unit"},
      {"measurement": "behavioural sign (neurological index, in words)", "setting": "[2]", "result": "does not lead to any behavioural sign"},
      {"measurement": "Neurological index (means ± s.e.m.)", "setting": "[2]; male, Wistar, po", "result": 0}
    ]}
  ]
}
